Test results from US20090196918A1, “Liposomal formulations of hydrophobic lactone drugs in the presence of metal ions” (University of Kentucky Research Foundation, priority 2008, published 2009).

Assay: Drug loading of DB-67 into liposomes by passive encapsulation
Conditions: liposomes prepared at pH 4 using 0.1 M hydroxypropyl-β-cyclodextrin and DB-67 lactone; same lipid concentration

## CC[C@@]1(O)C(=O)OCc2c1cc1n(c2=O)Cc2c-1nc1ccc(O)cc1c2[Si](C)(C)C(C)(C)C [DB-67, 7-t-butyldimethylsilyl-10-hydroxycamptothecin]
  DB-67 concentration of liposome suspension that could be prepared (loading): 0.8 mg/mL
